Data reported in US20090053807 (published 2009).

molecular target: mIR (human, UniProt P06213); experiment: FP vs FITC-RP9

Row | Binder | IC50
1 | GRVDWLQRNANFYDWFVAELG [S175] | 167 nM
2 | S380 (peptide) chain 1: EEDWLQRNANFYDWFVAEL chain 2: EEDWLQRNANFYDWFVAEL | 27 nM
3 | S291 (peptide) chain 1: GGGFHENFYDWFVRQVSKK chain 2: GGGFHENFYDWFVRQVSKK | 668 nM
4 | S337 (not fully specified) chain 1: GSLDESFYDWFERQLGKK chain 2: GSLDESFYDWFERQLGKK | 111 nM

The next lines start with the values.

Row | IC50 | Binder
5 | 284 nM | SFYDWFERQLG [S391]
6 | 151 nM | S414 (peptide) chain 1: ESFYDWFERQLGK chain 2: ESFYDWFERQLGK
